Results on 45 compounds are retold here after PubChem BioAssay AID504700 (The Scripps Research Institute Molecular Screening Center, 2011).

Chains of the proteins cited; added tags and fusions are not shown.
UniProt P31323, whole entry, looked up: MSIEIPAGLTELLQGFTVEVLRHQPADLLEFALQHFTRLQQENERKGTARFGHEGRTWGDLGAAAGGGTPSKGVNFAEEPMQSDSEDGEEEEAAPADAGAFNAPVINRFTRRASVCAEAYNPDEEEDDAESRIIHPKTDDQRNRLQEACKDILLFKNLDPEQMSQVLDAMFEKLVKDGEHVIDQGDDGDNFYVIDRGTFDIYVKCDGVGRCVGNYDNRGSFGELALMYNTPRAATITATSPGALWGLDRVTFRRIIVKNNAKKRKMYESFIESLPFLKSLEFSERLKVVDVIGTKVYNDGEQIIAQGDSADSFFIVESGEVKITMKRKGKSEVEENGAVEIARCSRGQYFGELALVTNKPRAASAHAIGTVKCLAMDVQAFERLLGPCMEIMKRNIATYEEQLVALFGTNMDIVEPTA

The list shows a part of the results, in another mix than the full data. Calls of active or inactive are those of the source.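 The calls were made as follows: active = activation above a cutoff set at the mean over all compounds plus 3 SD (cut at about 18% in these data); inactive = the rest.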

The assay deals with cAMP-dependent protein kinase catalytic subunit beta (Homo sapiens) + cAMP-dependent protein kinase type II-beta regulatory subunit (Homo sapiens) (UniProt P22694+P31323). Put plainly: activators of PKA-R2B holoenzyme, primary screen, biochemical, fluorescence polarization, Cy5-IP20, human (AID 504700).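 Also: higher means more holoenzyme dissociation and a rise in polarization.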 Conditions: PKA-R2B holoenzyme dissociation, at 11.4 µM, stronger effect = higher value, 0% DMSO only, 100% 113 µM cGMP, R2B truncated from residue 108, S112A mutant. On the technique in general: In fluorescence polarisation assays a small probe gives low polarisation when free and higher when bound to something large.
As for `CN1CCC(Nc2ccc(F)c(Cl)c2)CC1`, the activation is inactive: 3.3%.

Consider `O=C(OC1CN2CCC1CC2)C1c2ccccc2Oc2ccccc21` (stereo not given), for which the activation is inactive: -9.02%.

Take `O=C(NCC1(N2CCCCC2)CCCCC1)c1ccc(Cl)s1`: the activation was inactive: 7.16%.

Take `N#CC1(Nc2ccccc2)CCN(Cc2ccccc2)CC1`: the activation was inactive: 9.8%.

With `COc1ccc(Cl)cc1C(=O)NCC1(N2CCOCC2)CCCCC1`, the activation was inactive: -6.57%.

Turning to `CCOC(=O)N1CCC(Nc2ccc(OC)cc2)CC1`, the activation is inactive: -0.52%.

`O=C(NCC1(N2CCCCC2)CCCCC1)c1ccc(Cl)nc1`: the activation is inactive: 0.75%.

Consider `Cc1cc(C)cc(N(C(=O)c2ccccc2)C2CCN(C(=O)OC(C)(C)C)CC2)c1`, for which the activation is inactive: 5.73%.

For the compound `O=C(NCC1(N2CCOCC2)CCCCC1)c1cc2ccccc2o1`, the activation was inactive: 0.15%.

`CSc1ccccc1C(=O)NCC1(N2CCCCC2)CCCCC1`: the activation was inactive: 6.24%.

Take `Cc1cccc(NC2(C#N)CCN(Cc3ccccc3)CC2)c1`: the activation was inactive: 1.3%.

Turning to `COc1ccc(C(=O)NCC2(N3CCCCC3)CCCCC2)cc1`, the activation is inactive: 1.08%.

As to `CC(C)(C)OC(=O)N1CCC(N(C(=O)c2ccccc2)c2ccc(F)cc2)CC1`, the activation is inactive: 8.55%.

Regarding `COc1ccc(C(=O)NCC2(N3CCCCC3)CCCCC2)c(OC)c1OC`, the activation was inactive: -3.47%.

As to `O=C(NCC1(N2CCCCC2)CCCCC1)c1ccc(=O)[nH]c1`, the activation is inactive: 4.93%.

For the compound `O=C(NCC1(N2CCCCC2)CCCCC1)c1cccs1`, the activation is inactive: -2.44%.

For `COc1cc(C(=O)NCC2(N(C)C)CCCCC2)ccc1OC(F)F`, the activation was inactive: -12.4%.

`CCOC(=O)N1CCC(Nc2cccc(C)c2)CC1`: the activation is inactive: 0.74%.

Turning to `O=C(NCC1(N2CCCCC2)CCCCC1)c1ccc(F)cc1`, the activation is inactive: 4.82%.

Turning to `CCCCOc1ccc(C(=O)NCC2(N3CCOCC3)CCCCC2)cc1`, the activation was inactive: 4.69%.

Consider `O=P1(N(CCCl)CCCl)SCCCS1`, for which the activation was inactive: 3.36%.

As to `CCOC(=O)N1CCC(Nc2ccc(F)cc2)CC1`, the activation is inactive: -2.74%.

For the compound `COc1ccc(NC2CCN(CCc3ccccc3)CC2)c(OC)c1`, the activation is inactive: 4.23%.

`O=C1CCN(Cc2ccccc2)CC1`: the activation was inactive: -1.29%.

For the compound `CCOc1ccc(C)cc1CN(CCCl)CCCl`, the activation is inactive: 1.93%.

With `O=C(NCC1(N2CCOCC2)CCCCC1)c1cc(=O)[nH]c2ccccc12`, the activation is inactive: 6.9%.

For `COc1cc(C(=O)NCC2(N3CCCCC3)CCCCC2)ccc1OC(F)F`, the activation was inactive: -3.82%.

Consider `CC(C)c1ccc(C(=O)NCC2(N3CCOCC3)CCCCC2)cc1`, for which the activation was inactive: -7.54%.

Turning to `COc1ccc(NC2CCN(C(=O)OC(C)(C)C)CC2)cc1`, the activation is inactive: -3.76%.

`CN1CCN(CCOC(=O)C(O)(c2ccccc2)c2ccccc2)CC1`: the activation was inactive: -18.1%.

For `O=C(NCC1(N2CCCCC2)CCCCC1)c1cccc(C(F)(F)F)c1`, the activation was inactive: -7.38%.

In the case of `CCN1CCC(Nc2ccc(Cl)cc2)CC1`, the activation is inactive: 1.25%.

Consider `N#CC1(Nc2ccccc2)CCN(CCc2ccccc2)CC1`, for which the activation was inactive: -2.49%.

Consider `O=C(NCC1(N2CCCCC2)CCCCC1)c1cccc([N+](=O)[O-])c1`, for which the activation was inactive: -1.55%.

For `CSc1ccc(C(=O)NCC2(N3CCOCC3)CCCCC2)cc1`, the activation was inactive: -3.31%.

Regarding `O=C(NCC1(N2CCCCC2)CCCCC1)c1ccc(OC(F)F)cc1`, the activation was inactive: -7.85%.

For the compound `Cc1ccc(C(=O)NCC2(N(C)C)CCCCC2)o1`, the activation is inactive: -1.64%.

Regarding `CCCOc1ccc(C(=O)NCC2(N(C)C)CCCCC2)cc1OC`, the activation is inactive: -5.22%.

`O=C(NCC1(N2CCCCC2)CCCCC1)c1cncc(Br)c1`: the activation was inactive: 4.26%.

As to `CN1CCC(Nc2cccc(F)c2)CC1`, the activation was inactive: 9.7%.

Take `COc1cc(OC)c(C(=O)NCC2(N(C)C)CCCCC2)cc1OC`: the activation was inactive: -5.23%.

`O=C(NCC1(N2CCOCC2)CCCCC1)c1cc(F)c(F)cc1Cl`: the activation is inactive: 0.51%.

Consider `CC(C)c1ccc(NC2CCN(C(=O)OC(C)(C)C)CC2)cc1`, for which the activation was inactive: 1.68%.

As to `COc1ccc(CN(CCCl)CCCl)cc1Cl`, the activation is inactive: -11.2%.

In the case of `CN(C)c1cccc(C(=O)NCC2(N3CCCCC3)CCCCC2)c1`, the activation is inactive: -5.41%.
